From patent US20250129067A1 (Progentos Therapeutics, Inc., priority 2021, published 2025)

Amino acid sequences for entries named in this document (tags omitted). Residues count along the entry.
UniProt P16234, 24-1089 limits assumed: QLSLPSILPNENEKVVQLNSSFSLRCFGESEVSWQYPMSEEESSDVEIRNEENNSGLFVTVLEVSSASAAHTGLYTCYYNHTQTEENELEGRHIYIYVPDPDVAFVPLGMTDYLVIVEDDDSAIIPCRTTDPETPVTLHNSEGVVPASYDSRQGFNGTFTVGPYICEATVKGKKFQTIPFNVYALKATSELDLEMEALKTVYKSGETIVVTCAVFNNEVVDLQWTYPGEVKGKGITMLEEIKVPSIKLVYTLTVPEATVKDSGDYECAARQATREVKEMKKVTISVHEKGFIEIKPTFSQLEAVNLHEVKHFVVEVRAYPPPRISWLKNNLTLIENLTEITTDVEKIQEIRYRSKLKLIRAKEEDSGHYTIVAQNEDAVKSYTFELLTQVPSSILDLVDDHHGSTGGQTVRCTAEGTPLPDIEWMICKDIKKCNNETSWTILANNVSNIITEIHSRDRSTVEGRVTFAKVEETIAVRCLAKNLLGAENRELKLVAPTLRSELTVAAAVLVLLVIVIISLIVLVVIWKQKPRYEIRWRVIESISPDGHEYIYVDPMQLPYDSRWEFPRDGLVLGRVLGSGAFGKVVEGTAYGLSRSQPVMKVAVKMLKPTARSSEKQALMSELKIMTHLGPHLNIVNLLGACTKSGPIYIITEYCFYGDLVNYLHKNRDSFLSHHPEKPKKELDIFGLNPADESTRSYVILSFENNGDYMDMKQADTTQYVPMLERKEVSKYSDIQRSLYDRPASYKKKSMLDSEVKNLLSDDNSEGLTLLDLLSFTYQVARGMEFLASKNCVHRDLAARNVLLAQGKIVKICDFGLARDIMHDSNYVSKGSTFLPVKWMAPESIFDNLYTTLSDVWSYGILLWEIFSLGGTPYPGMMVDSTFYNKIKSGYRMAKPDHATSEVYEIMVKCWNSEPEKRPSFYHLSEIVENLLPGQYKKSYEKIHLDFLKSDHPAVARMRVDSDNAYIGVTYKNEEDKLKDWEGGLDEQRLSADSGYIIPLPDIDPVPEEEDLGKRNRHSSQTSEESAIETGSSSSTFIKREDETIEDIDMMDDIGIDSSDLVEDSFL

Legend:
[1] = test system: Oligodendrocyte progenitor cells (OPCs); assay: In vitro OPC differentiation assay, GPR17 expression (immunocytochemistry); assay type: cell-based, rat
PDGFRα = PDGFRα (Homo sapiens (Human), UniProt P16234); assay: PDGFRα kinase enzyme assay (Promega PDGFRα Kinase Enzyme System, ADP-Glo); assay type: biochemical; details: read-out: IC50 Values on PDGFRα Kinase Inhibition, IC50; 11-point dose response, 10,000 nM to 0.169 nM; 150 uM ATP; BLQ = below limit of quantitation

CC(C)(C)OC(=O)N1CCN(c2cnc3cc(-c4cccnc4)ncn23)CC1
fold induction [1]: 1.33 | IC50 (PDGFRα): 1440 nM
